Test results reported in PMC11096469.

Biological target: C_(γ1-3) chain (VH-deleted human IgG1 heavy chain) (human)
Assay: ELISA

other: 40%
Substance: ψLC (2C281 ψVκ-Cκ) (antibody)
